Reference: US8263592B2, “Equilibrative nucleoside transporter ENT1 inhibitors” (Janssen Pharmaceutica NV, priority 2007, dated 2012)

Amino acid sequences for entries named in this document (tags omitted).
UniProt Q99808, whole entry: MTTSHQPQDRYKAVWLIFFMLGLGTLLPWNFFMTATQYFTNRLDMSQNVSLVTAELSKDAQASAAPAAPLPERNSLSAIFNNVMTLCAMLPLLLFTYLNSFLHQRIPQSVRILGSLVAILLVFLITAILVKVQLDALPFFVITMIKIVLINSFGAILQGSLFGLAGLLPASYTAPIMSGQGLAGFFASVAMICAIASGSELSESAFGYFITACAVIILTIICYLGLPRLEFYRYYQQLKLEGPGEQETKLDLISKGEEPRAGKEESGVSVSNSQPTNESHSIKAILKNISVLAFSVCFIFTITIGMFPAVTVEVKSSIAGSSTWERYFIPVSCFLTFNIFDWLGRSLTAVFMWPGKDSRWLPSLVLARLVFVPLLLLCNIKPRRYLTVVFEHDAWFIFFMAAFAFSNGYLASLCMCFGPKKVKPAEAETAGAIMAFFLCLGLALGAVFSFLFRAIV

Molecular target: human ENT1 transporter (Homo sapiens, UniProt Q99808)
Assay: hENT1-NBMPR-ERYTH binding assay ([3H]NBMPR, human erythrocytes)
Conditions: [3H]NBMPR 1 nM, washed human red blood cells 1:200, 30 minutes at room temperature; pIC50=-log(IC50)

Row | SMILES | pIC50 values for ENT1 transporter inhibition
1 | O=C1NC2(CCN(CCNC(=O)c3c(Cl)cccc3Cl)CC2)Oc2cc(OC3CCCC3)c(Cl)cc21 | 9.10
2 | O=C1NC2(CCN(CCNC(=O)c3c(Cl)cccc3Cl)CC2)Oc2cc(NC3CCCC3)c(Cl)cc21 | 9.00
3 | CC(=O)N1CCC(Nc2ccc3c(c2Cl)OC2(CCN(CCNC(=O)c4c(Cl)cccc4Cl)CC2)NC3=O)CC1 | 7.09
4 | Cc1cc(N)c2c(c1)C(=O)NC1(CCN(CCNC(=O)c3c(Cl)cccc3Cl)CC1)O2 | 6.6
5 | CC(=O)N1CCC(Nc2cc(Cl)cc3c2OC2(CCN(CCNC(=O)c4c(Cl)cccc4Cl)CC2)NC3=O)CC1 | 8.31
6 | CC(=O)N1CCC(Nc2cc3c(cc2Cl)C=CC2(CCN(CCNC(=O)c4c(Cl)cccc4Cl)CC2)O3)CC1 | 9.49
7 | CNc1cc(C)cc2c1OC1(CCN(CCNC(=O)c3c(Cl)cccc3Cl)CC1)NC2=O | 7.18
8 | O=C(NCCN1CCC2(CC1)CC(O)c1cc(Cl)c(OC3CCCC3)cc1O2)c1c(Cl)cccc1Cl (stereo not drawn) | 8.87

Other lines, results leading:

Row | pIC50 values for ENT1 transporter inhibition | SMILES
9 | 7.08 | CN1CCC(Nc2cc3c(cc2Cl)C(=O)NC2(CCN(CCNC(=O)c4c(Cl)cccc4Cl)CC2)O3)CC1
10 | 6.68 | Cc1cccc(C)c1C(=O)NCCN1CCC2(CC1)NC(=O)c1ccc(NC3CCOCC3)c(Cl)c1O2
11 | 8.82 | O=C1CC2(CCN(CCNC(=O)c3c(Cl)cccc3Cl)CC2)Oc2c1ccc(NCC1CCCC1)c2Cl
12 | 8.35 | CC(=O)N1CCC(Oc2cc3c(cc2Cl)C(=O)CC2(CCN(CCNC(=O)c4c(C)cccc4C)CC2)O3)CC1
13 | 8.38 | O=C1CC2(CCN(CCNC(=O)c3c(Cl)cccc3Cl)CC2)Oc2cc(OC3CCNCC3)c(Cl)cc21
14 | 7.91 | Cc1cccc(C)c1C(=O)NCCN1CCC2(CC1)CC(=O)c1cc(Cl)c(N3CCOCC3)cc1O2
15 | 6.83 | CC(=O)Nc1ccc2c(c1)C(=O)CC1(CCN(CCNC(=O)c3c(Cl)cccc3Cl)CC1)O2
16 | 9.22 | CC(=O)N1CCC(Oc2cc3c(cc2C)C(=O)CC2(CCN(CCNC(=O)c4c(Cl)cccc4Cl)CC2)O3)CC1
17 | 8.73 | Cc1cc(NC(=O)OC(C)(C)C)c2c(c1)C(=O)CC1(CCN(CCNC(=O)c3c(Cl)cccc3Cl)CC1)O2
18 | 8.335 | Cc1cc2c(cc1N(C)C(=O)C1CCCC1)OC1(CCN(CCNC(=O)c3c(Cl)cccc3Cl)CC1)CC2=O
19 | 8.12 | Cc1cc2c(cc1Cl)C(=O)CC1(CCN(CCNC(=O)c3c(Cl)cccc3Cl)CC1)O2
20 | 7.93 | Cc1cccc(C)c1C(=O)NCCN1CCC2(CC1)NC(=O)c1cc(Cl)c(OC3CCCC3)cc1O2
21 | 7.24 | CC(=O)Nc1cc2c(cc1C)C(=O)CC1(CCN(CCNC(=O)c3c(Cl)cccc3Cl)CC1)O2
